What was measured:
Mus musculus [1] = species on record: Mus musculus; test: Analgesic activity test by employing tail-flick procedure in CF-1 female mice
Mus musculus [2] = species on record: Mus musculus; test: Analgesic activity test by employing tail-pinch procedure in CF-1 female mice
Mus musculus [3] = species on record: Mus musculus; test: Analgesic activity test by employing HCl writhing procedure in CF-1 female mice
Mus musculus [4] = species on record: Mus musculus; test: Antagonistic activity by measuring blockade of morphine-induced elevation of tail flick latency in CF-1 female mice

Work on `C=CCN(C)C1(c2cccc(O)c2)CCC2(CC1)OCCO2` yielded an ED50 (Mus musculus [1]) greater than 200 mg/kg, an ED50 (Mus musculus [2]) greater than 200 mg/kg and an ED50 (Mus musculus [3]) greater than 200 mg/kg.

With `CN(CC1CC1)C1(c2cccc(O)c2)CCC2(CC1)OCCO2` the ED50 (Mus musculus [1]) was greater than 100 mg/kg, the ED50 (Mus musculus [2]) was greater than 100 mg/kg and the ED50 (Mus musculus [3]) was greater than 100 mg/kg.

`CN(C)C1(c2cccc(O)c2)CCC(O)(CCc2ccccc2)CC1` (configuration not stated) was tested, and the ED50 (Mus musculus [4]) was greater than 100 mg/kg.

Reference: ChEMBL document CHEMBL1121803, “4-aryl-4-aminocyclohexanones and their derivatives, a novel class of analgesics. 3. m-Hydroxyphenyl derivates” (1981)
